# scFv variants of Ab-14 (light chain) against a SARS-CoV-2 spike peptide

All variants were tested on one target, the spike HR2 peptide PDVDLGDISGINAS (SARS-CoV-2).

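Phage display of a naive human antibody library on the peptide gave the parent. This is the validation round: designs drawn from the data on random variants, tested in the same kind of assay. Their group label is 14L_GP_Gibbs (GP: Gaussian process model; Gibbs: Gibbs sampling; a sequence that several methods proposed may carry one label only). AlphaSeq pools MATa yeast showing the antibodies with MATalpha yeast showing the peptide. Mating (16 h, 30 °C) was followed by selection of diploids and sequencing of their barcodes. The ratio of observed to expected reads was calibrated, replicate by replicate, on BCL2-family standards whose Kd was known from biolayer interferometry. There are six technical replicates.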

The variants keep the heavy chain, the linker and the frameworks of Ab-14 (scFv order VH, a 15-residue (Gly4Ser)3 linker, VL).
VH: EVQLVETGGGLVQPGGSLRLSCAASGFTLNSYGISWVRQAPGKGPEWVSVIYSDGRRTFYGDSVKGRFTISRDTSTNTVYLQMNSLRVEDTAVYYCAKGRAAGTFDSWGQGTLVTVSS
VL: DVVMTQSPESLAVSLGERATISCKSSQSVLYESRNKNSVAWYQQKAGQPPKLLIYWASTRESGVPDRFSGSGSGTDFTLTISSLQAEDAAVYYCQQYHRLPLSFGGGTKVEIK

Positions count from residue 1 of the parent VL; S25F puts F in place of S. Values are log10 of the apparent Kd in nM; lower means stronger binding. The range of this assay differs from that of the first round, and the authors advise against merging the two. Of ten entries with the parent sequence, four were seen in most replicates (averages 0.34 to 2.37), three in one and three in none, so single entries are noisy. In the paper, a design with two or fewer of six values counts as a poor binder. Nonspecific signal, from three strains lacking the peptide, appeared in 4% of pairings of all light chain designs, centred on 2.64 (5% of these signals below 1.59); values are not corrected for it. Also given: how often the same scFv was detected with the empty control strains, with their mean in brackets.

| changes | log10 Kd, replicates | control signals |
|---|---|---|
| S25F+V29D+L30P+S33D+R34G+W56N+E61C | 0.87 / 1.09 / 0.97 / 1.08 / 0.88 / 1.14 | 2/18 (2.85) |
| S25L+S26F+V29Y+L30E+W56N+T59Q+S62C | 0.20 / -0.13 / 0.01 / -0.24 / 0.23 / 0.41 | 1/18 (3.80) |
| S25Q+V29A+L30W+Y31M+S33E+K36F+W56H | 0.12 / 0.12 / -0.04 / 0.18 / 0.33 / 0.11 | 0/18 |
| S25N+S26W+Q27I+V29H+Y31G+S38A+W56N+S62E | 0.53 / 0.46 / 0.25 / 0.44 / 0.45 / 0.78 | 0/18 |
| S25Q+S26Q+Q27G+S28G+V29Q+L30D+K36D+W56D | 0.37 / 0.58 / 0.36 / 0.31 / 0.42 / 0.32 | 1/18 (3.20) |
| S25A+V29W+L30G+N37W+W56N | -0.21 / -0.32 / -0.46 / -0.69 / -0.83 / 0.46 | 0/18 |
| S26A+Q27Y+V29C+Y31L+K36C+W56S+S62L | 2.45 / 2.44 / 2.09 / 2.37 / 2.04 / 2.14 | 2/18 (2.38) |
| S25V+Q27P+V29M+Y31G+S33Q+W56S+S62N | 0.31 / 0.02 / 0.28 / -0.07 / 0.12 / 0.20 | 0/18 |
| S25L+S28M+V29Y+L30E+N35W+W56N+S62L | -0.01 / -0.01 / 0.04 / 0.01 / -0.06 / 0.08 | 3/18 (3.34) |
| S25L+V29F+Y31M+R34M+W56E+E61I+S62W | 0.31 / 0.38 / 0.68 / 0.27 / 0.16 / 0.58 | 3/18 (2.64) |
| S25L+S26Q+Q27F+V29S+L30G+Y31M+E32S+S33Q+W56S+E61C | 0.86 / 1.02 / 0.88 / 0.65 / 0.90 / 0.83 | 3/18 (1.94) |
| S25Q+S26Q+V29F+K36S+W56N+T59Q+S62E+S103M | 0.44 / 0.35 / -0.11 / 0.86 / 0.36 / 0.40 | 2/18 (3.29) |
| S25V+S28K+V29N+N35M+W56N+T59Q | 0.75 / 0.48 / -0.27 / -0.22 / -0.04 / 0.37 | 1/18 (0.42) |
| S25V+Q27P+L30Q+S33A+K36F+W56E+S62Q | 0.64 / 0.70 / 0.50 / 0.30 / 0.49 / 0.43 | 0/18 |
| S25L+S28M+L30D+K36M+S38N+W56E+E61M | -0.33 / -0.86 / -0.72 / -1.16 / -0.72 / -0.30 | 0/18 |
| Q27P+V29E+L30P+S33D+K36F+W56H+T59Q | 0.12 / -0.02 / 0.44 / 0.11 / 0.09 / 0.28 | 0/18 |
| S25I+V29M+S33P+K36W+W56N+E61L+S62R | 0.21 / 0.19 / 0.11 / -0.03 / 0.17 / 0.31 | 2/18 (2.19) |
| Q27G+V29Q+L30Q+Y31G+S33D+K36S+W56H+T59Q | 0.01 / 0.24 / -0.06 / 0.03 / -0.02 / 0.20 | 0/18 |
| S25F+S26P+L30G+E32Q+S33E+W56D | -0.31 / -0.15 / -0.44 / -0.47 / -0.33 / -0.28 | 0/18 |
| Q27G+K36S+W56N+S62L+Q96D | 0.13 / -0.13 / 0.05 / -0.18 / -0.21 / 0.57 | 0/18 |
| S25L+S26D+L30V+W56N | -0.27 / -0.29 / -0.35 / -0.41 / -0.55 / -0.29 | 1/18 (2.43) |
| S25M+Q27M+V29W+L30P+E32D+S33D+R34L+W56N+E61M+S62Q | 0.43 / 0.20 / 0.20 / 0.16 / 0.06 / 0.48 | 3/18 (2.86) |
| S25V+S26D+Y31G+E32Q+K36Q+S38A+W56A | 0.25 / 0.22 / 0.05 / -0.09 / 0.14 / 0.23 | 3/18 (2.36) |
| S25Q+Q27S+V29T+R34G+N35M+W56N+T59K+E61M | 0.22 / 0.03 / 0.04 / -0.06 / 0.01 / 0.03 | 0/18 |
| S25L+S28G+V29W+K36A+S38N+W56N+T59R+S62Q | -0.30 / -0.34 / -0.51 / -0.43 / -0.47 / -0.32 | 0/18 |
| S25Q+Q27C+V29E+E32G+W56D+T59Q | -0.11 / 0.04 / -0.64 / -0.57 / -0.43 / -0.38 | 1/18 (1.62) |
| Q27C+V29E+L30P+E32D+R34P+K36S+W56N+T59Q+S62R | 1.79 / 1.61 / 2.24 / 0.94 / 1.35 / 1.83 | 0/18 |
| S25L+Q27L+Y31L+N35D+K36V+S38A+W56E+Q96D | 2.07 / 1.26 / 1.11 / 0.74 / 0.68 / 1.45 | 2/18 (2.10) |
| S25M+S28E+L30P+Y31L+K36V+W56M+E61L+S62M | 0.76 / 0.34 / 0.58 / 0.27 / 0.29 / 0.50 | 0/18 |
| S26Q+S28Q+V29Y+L30C+E32G+S33D+W56N+T59Q+S62D | 0.17 / 0.18 / -0.07 / -0.05 / 0.07 / 0.19 | 0/18 |
| K24A+S25V+V29T+S33D+R34G+K36S+W56N+T59V | 0.14 / 0.36 / -0.03 / -0.21 / 0.17 / 0.06 | 0/18 |
| S25M+L30P+S33D+K36W+W56N+T59K+E61L | 0.32 / -0.12 / 0.04 / -0.24 / 0.15 / -0.08 | 0/18 |
| S25V+S26Q+V29E+Y31G+N35H+K36F+W56N+T59K+E61C | 0.95 / 0.74 / 0.67 / 0.48 / 0.99 / 0.90 | 2/18 (2.65) |
| S25V+Q27P+V29Q+L30E+E32W+N37Q+W56H+T59Q+S62E | 0.41 / 0.58 / 0.35 / 0.18 / 0.21 / 0.24 | 1/18 (2.91) |

Top 3 of the variants detected in all replicates, tightest first:

| changes | log10 Kd, replicates | control signals |
|---|---|---|
| S25L+S28M+L30D+K36M+S38N+W56E+E61M | -0.33 / -0.86 / -0.72 / -1.16 / -0.72 / -0.30 | 0/18 |
| S25L+S28G+V29W+K36A+S38N+W56N+T59R+S62Q | -0.30 / -0.34 / -0.51 / -0.43 / -0.47 / -0.32 | 0/18 |
| S25L+S26D+L30V+W56N | -0.27 / -0.29 / -0.35 / -0.41 / -0.55 / -0.29 | 1/18 (2.43) |

Values reported by Li et al. 2023, doi:10.1038/s41467-023-39022-2 (FLAb copy).